Read-outs that look alike come from different tables or passages of the source.
How the values were obtained:
[1] = Insulin PK after SC or intra-jejunal (IJ) jet delivery in swine (Example 3); assay type: in vivo, Yorkshire female swine; settings: individual animals
[2] = Dosing regimen model: required bioavailability for ingestible device (Tables 16, 17); settings: approved dose x bioavailability of the approved route (Table 16)
[3] = in vivo, cited from earlier work

Substance | Tmax of blood insulin ([1]; IJ administration via jet delivery device, ~40 U) [h] | Tmax of blood insulin ([1]; SC administration) [h] | Eff Dose [2] [mg] | Bio Avail (Approved Dosing Info) ([3]; sc) [%] | Bio Avail (Approved Dosing Info) [3] [%]
Novolin® R: regular human insulin (NOVOLIN® R) | 1.25 | 1.25 | – | – | –
abatacept | – | – | 98.8 | 79 | –
interferon beta-1a | – | – | 0.01 | – | 40
